Our source for the Ki values is ChEMBL document CHEMBL3856277, “Design, synthesis, and activity evaluation of selective inhibitors of anti-apoptotic Bcl-2 proteins: The effects on the selectivity of the P1 pockets in the active sites” (Bioorg Med Chem Lett, 2016).

Sequences of proteins named here, by UniProt entry; tags and fusion partners are left off.
UniProt Q07820, whole entry: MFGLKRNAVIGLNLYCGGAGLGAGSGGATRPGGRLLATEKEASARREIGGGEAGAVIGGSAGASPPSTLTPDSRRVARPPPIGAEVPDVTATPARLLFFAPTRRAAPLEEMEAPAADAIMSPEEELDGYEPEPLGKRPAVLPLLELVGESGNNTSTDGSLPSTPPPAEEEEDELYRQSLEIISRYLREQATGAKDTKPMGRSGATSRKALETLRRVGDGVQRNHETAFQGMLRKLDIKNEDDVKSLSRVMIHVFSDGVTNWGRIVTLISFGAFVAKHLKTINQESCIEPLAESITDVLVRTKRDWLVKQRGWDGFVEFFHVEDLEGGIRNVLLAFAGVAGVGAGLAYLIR

Each structure is given as a SMILES string.

The target of the assay is Induced myeloid leukemia cell differentiation protein Mcl-1 (Homo sapiens, UniProt Q07820). Description: Inhibition of 5-FAM-Bid peptide binding to MCL-1 (unknown origin) by fluorescence polarization assay.

For the compound `CN(C)CC[C@H](CSc1ccccc1)Nc1ccc(S(=O)(=O)NC(=O)c2ccc(N3CCN(Cc4ccccc4-c4ccc(Cl)cc4)CC3)cc2)cc1[N+](=O)[O-]` [ABT 737], the Ki (as a rule, a measure of affinity in units of concentration, obtained from inhibition or displacement) is greater than 20 µM.
